# Laboratory results as given in PubChem BioAssay AID463210 (The Scripps Research Institute Molecular Screening Center, 2010).
# Chains of the proteins cited; added tags and fusions are not shown. Lines headed by an entry give the natural chain unless they say otherwise; changes in a name come on top.
# UniProt P55210: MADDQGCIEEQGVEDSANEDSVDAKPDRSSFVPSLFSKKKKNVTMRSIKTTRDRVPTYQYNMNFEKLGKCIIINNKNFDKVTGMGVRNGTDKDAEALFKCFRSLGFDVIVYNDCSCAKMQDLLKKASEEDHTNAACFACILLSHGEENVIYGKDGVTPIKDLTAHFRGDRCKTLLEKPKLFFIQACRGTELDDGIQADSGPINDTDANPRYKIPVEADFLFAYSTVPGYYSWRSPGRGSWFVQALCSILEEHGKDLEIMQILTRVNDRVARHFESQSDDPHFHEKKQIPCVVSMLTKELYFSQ
# This is a selection; strong and weak results do not stand in their true shares. Calls of active or inactive are those of the source.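 How the source made its calls: active means percent activation above the screen-wide mean plus 3 SD (cut at about 25% in these data); inactive means the rest.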
# Biological target: Caspase-7 (Homo sapiens) (UniProt P55210)
# Assay: activation of procaspase-7 enzyme – biochemical, absorbance, HTS, human, counter-screen for procaspase-3 activator project, primary screen (AID 463210)
# Settings: recombinant procaspase-7, Ac-DEVD-pNA absorbance 405 nm; at 8.5 µM; hits give high values; D23A/D198A/D206A triple mutant, cannot self-cleave; scale: DMSO 0, 5 µM enzyme 100
row,Compound,activation
1,O=P(Nc1nccs1)(Oc1ccccc1)Oc1ccccc1,inactive: -3.34%
2,CCOP1(=S)c2c(C)nn(CCC#N)c2N=C(c2ccccc2F)N1C (stereo unspecified),inactive: 9.11%
3,CS(=O)(=O)c1cc([N+](=O)[O-])c2no[n+]([O-])c2c1,inactive: -7.14%
4,Nc1ccccc1[As](=O)(O)c1ccccc1,inactive: 0.28%
5,O=C(O)COc1ccc([As](=O)(O)O)cc1[N+](=O)[O-],inactive: -8.62%
6,NC(=O)Nc1ccc([As](=O)(O)O)cc1,inactive: 14.6%
7,CCOP1(=S)c2c(C)nn(CCC#N)c2N=C(c2ccc(F)cc2)N1C (stereo unspecified),inactive: -1.96%
8,CN(C(=O)Cc1ccccc1)[C@@H]1CC[C@]2(CCCO2)C[C@H]1N1CCCC1,inactive: -9.14%
9,N#CCCN(C(=O)COC(=O)C(O)(c1ccccc1)c1ccccc1)c1ccc(F)cc1,inactive: 10.5%
10,CN(C(=O)Cc1ccc(Cl)c(Cl)c1)[C@H]1CC[C@@]2(CCCO2)C[C@@H]1N1CCCC1,inactive: 0.03%
11,CN(C)C(=O)c1cc([N+](=O)[O-])cc2c1-c1c(cc([N+](=O)[O-])cc1[N+](=O)[O-])C2=O,inactive: 7.23%
12,O=[N+]([O-])c1ccc2c(c1)nnn2O,inactive: -1.96%
13,O=C(OC1CN2CCC1CC2)c1ccc(Cl)cc1 (stereo unspecified),inactive: 4.63%
14,CS(=O)(=O)c1ccc(Cl)c(NC(=O)COC(=O)C(O)(c2ccccc2)c2ccccc2)c1,inactive: 2.05%
15,COc1cc(C(=O)NCC2(N3CCOCC3)CCCCC2)cc(Cl)c1OC(C)C,inactive: 10.2%
16,O=[As](O)(O)c1cccnc1,inactive: -3.47%
17,O=[As](O)(c1cccc(O)c1)c1cccc(O)c1,inactive: 9.14%
18,Cc1cccc(OCC(=O)OC2CN3CCC2CC3)c1 (stereo unspecified),inactive: -8.3%
19,Nc1cccc2c([As](=O)(O)O)cccc12,inactive: -8.32%
20,Cc1ccc(NCCc2c([N+](=O)[O-])cc([N+](=O)[O-])cc2[N+](=O)[O-])cc1,inactive: -14%
21,CCCOP(=S)(Nc1nc(N)cc(=O)[nH]1)OCCC,inactive: 1.55%
22,CCOP(=O)(Nc1cccc2ccccc12)OCC,inactive: -1.59%
23,COc1cc(C2NCCC3(OCCO3)C2(C)C)cc(OC)c1OC (stereo unspecified),inactive: 11.4%

row,Compound,activation
1,CCOP(=O)(NC(=NC(C)c1ccccc1)NC(C)c1ccccc1)OCC (stereo unspecified),inactive: 4.69%
2,O=P1(Nc2ccccn2)COc2ccccc2OC1,inactive: 8.88%
3,CCC1=CC2Cc3nc4ccc(Cl)cc4c(N)c3C(C1)C2 (stereo unspecified),inactive: 1.29%
4,CN(CCCl)Cc1cc(Cl)c(NC2=NCCN2)c(Cl)c1,inactive: 0.73%
5,CCOP(=O)(Nc1ccc(C)cn1)OCC,inactive: 6.53%
6,CC(C)(C)C(=O)NC(Sc1ncccn1)C(Cl)(Cl)Cl (stereo unspecified),inactive: -33.8%
7,Clc1n[nH]nc1-c1nn[nH][15n]1,inactive: 4.97%
8,COc1ccccc1CNC(=O)COC(=O)C(O)(c1ccccc1)c1ccccc1,inactive: -2.8%
9,CC(C)/C=N\N=C(\N)N[N+](=O)[O-],inactive: 7.94%
10,CN(C(=O)Cc1ccc(Cl)c(Cl)c1)[C@@H]1CCCC[C@H]1N1CCCC1,inactive: 3.32%
11,CC1(CBr)Cn2c(nc3ccccc3c2=O)S1 (stereo unspecified),inactive: -3.31%
12,O=[As](O)(c1ccccc1Br)c1ccccc1Br,inactive: -3.77%
13,CC1CCC(C(C)C)C(OP(=O)(Nc2ccccn2)c2ccccc2)C1 (stereo unspecified),inactive: -2.28%
14,Cc1ccc(C(=O)OC2CN3CCC2CC3)cc1 (stereo unspecified),inactive: -1.59%
15,Cc1nn(-c2ccccc2)c2c1P(=O)(N1CCOCC1)N(C)C(c1ccccc1)=N2 (stereo unspecified),inactive: 4.34%
16,CN(C)C1(CNC(=O)c2ccc(S(C)(=O)=O)cc2)CCCCC1,inactive: 5.1%
17,O=C(/C=C/c1ccccc1)OC1CN2CCC1CC2 (stereo unspecified),inactive: 3.06%
18,O=P1(Nc2ncccn2)COc2ccccc2OC1,inactive: -7.66%
19,Nc1cccc([As](=O)(O)c2ccccc2)c1,inactive: 1.94%
20,O=P1(Nc2ccc(Br)cn2)COc2ccccc2OC1,inactive: -1.11%
21,NS(=O)(=O)c1cccc(NC(=O)COC(=O)C(O)(c2ccccc2)c2ccccc2)c1,inactive: 2.97%
22,O=[As](O)(c1cccs1)c1cccs1,inactive: -9.51%
23,Cc1ccc(OCC(=O)OC2CN3CCC2CC3)cc1 (stereo unspecified),inactive: -5.95%
